Source: PubChem BioAssay AID1445 (SRMLSC, 2008)
Only a part is listed here, and it is no random draw. Measured potencies and affinities stand elsewhere. Some tests of the compounds listed are not included; inactive here does not mean inactive elsewhere. Calls of active or inactive are those of the source.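 Rule for the calls: active = primary inhibition above the hit cutoff, then over 50% inhibition at one or more dose response concentrations (cut at about 23% in these data, passing the limit was not always enough); inconclusive = conflicting primary data, or primary hits not chosen for dose response; inactive = low primary inhibition, or under 50% at every dose.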

The chains behind the UniProt entries cited, without tags or fusion partners.
UniProt O96935, whole entry: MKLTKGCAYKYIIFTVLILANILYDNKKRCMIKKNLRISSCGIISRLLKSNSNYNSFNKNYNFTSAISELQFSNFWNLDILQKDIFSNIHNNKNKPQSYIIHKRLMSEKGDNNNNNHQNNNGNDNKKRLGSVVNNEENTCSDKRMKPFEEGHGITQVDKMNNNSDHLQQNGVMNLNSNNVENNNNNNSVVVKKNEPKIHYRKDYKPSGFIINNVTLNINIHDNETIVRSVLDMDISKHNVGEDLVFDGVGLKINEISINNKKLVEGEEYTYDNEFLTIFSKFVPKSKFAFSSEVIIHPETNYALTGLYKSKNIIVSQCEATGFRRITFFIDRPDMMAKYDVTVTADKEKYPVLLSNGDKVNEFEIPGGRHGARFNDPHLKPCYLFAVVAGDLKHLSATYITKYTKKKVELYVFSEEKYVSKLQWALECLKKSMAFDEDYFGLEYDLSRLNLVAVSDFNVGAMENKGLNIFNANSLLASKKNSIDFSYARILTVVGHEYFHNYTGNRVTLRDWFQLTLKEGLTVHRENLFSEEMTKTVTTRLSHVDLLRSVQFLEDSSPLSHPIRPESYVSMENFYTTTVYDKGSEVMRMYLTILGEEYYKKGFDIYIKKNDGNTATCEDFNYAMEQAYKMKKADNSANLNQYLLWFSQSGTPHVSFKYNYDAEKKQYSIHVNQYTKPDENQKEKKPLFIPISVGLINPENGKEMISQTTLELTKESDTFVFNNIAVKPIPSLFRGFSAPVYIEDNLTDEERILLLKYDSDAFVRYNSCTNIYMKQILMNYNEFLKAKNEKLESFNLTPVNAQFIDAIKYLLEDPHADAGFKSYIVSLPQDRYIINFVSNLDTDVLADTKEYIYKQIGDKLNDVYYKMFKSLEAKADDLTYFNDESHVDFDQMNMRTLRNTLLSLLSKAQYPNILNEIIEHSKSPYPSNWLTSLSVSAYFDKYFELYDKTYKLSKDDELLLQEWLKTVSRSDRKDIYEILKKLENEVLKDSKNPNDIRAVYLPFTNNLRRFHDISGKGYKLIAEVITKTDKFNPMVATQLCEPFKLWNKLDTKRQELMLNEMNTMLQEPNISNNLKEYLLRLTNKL

target: Aminopeptidase N (Plasmodium falciparum (isolate 3D7)) (UniProt O96935); test: P. falciparum M1AAP inhibitors, biochemical, fluorogenic H-Leu-NHMec substrate, 1536-well (AID 1445); details: recombinant M1AAP, H-Leu-NHMec fluorogenic kinetic assay; at 30 µM; hits give high values;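 note: plate controls were DMSO full reaction for no effect and no enzyme background for full effect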

| Compound | inhibition |
| --- | --- |
| CCN1CCCC(OC(=O)C2(O)c3ccccc3C=Cc3ccccc32)C1 (stereo unspecified) | inactive: 7.18% |
| C=CCN1CCN(CCOC(=O)C(O)(c2ccccc2)c2ccccc2)CC1 | inactive: -1.58% |
| CN(C)C1CCCC1OC(=O)C(O)(c1ccccc1)c1ccccc1 (stereo unspecified) | inactive: 2.62% |
| Cc1ccccc1C(=O)NCC1(N2CCCCC2)CCCCC1 | inactive: 4.3% |
| CC(C)N1C(=O)CC2(CCN(CCOC(=O)C(O)(c3ccccc3)c3ccccc3)CC2)C1=O | inactive: -1.71% |
| CCN(CC)CC(C)C(C)OC(=O)C(O)(c1ccccc1)c1ccccc1 (stereo unspecified) | inactive: -0.19% |
| O=C(NCC1(N2CCCCC2)CCCCC1)c1cc([N+](=O)[O-])ccc1Cl | inactive: 13.3% |
| CN(C)c1cccc(C(=O)NCC2(N(C)C)CCCCC2)c1 | inactive: 2.49% |
| COc1ccc(Br)c(C(=O)NCC2(N3CCCCC3)CCCCC2)c1 | inactive: -0.69% |
| O=C(OC1CN2CCC1CC2)C(CO)(c1ccccc1)c1ccccc1 (stereo unspecified) | inactive: 2.55% |
| COc1cccc(C(=O)NCC2(N3CCCCC3)CCCCC2)c1 | inactive: -3.06% |
